We go through 71 compounds from patent US10889573B2, “Anthelmintic quinoline-3-carboxamide derivatives” (Bayer Animal Health GMBH, priority 2016, dated 2021).

The nature of the first data set: log P by HPLC on reversed phase columns (Method L0).
Settings: not given
With `O=C(N[C@H]1CCOc2ccccc21)c1cnc2c(-c3cc(F)cc(F)c3F)c(F)ccc2c1N1CCOCC1` [Example 540], the logP (Method L0)^[a] amounted to 3.59.
For the compound `O=C(N[C@H]1CCOc2ccccc21)c1cnc2c(-c3cc(F)c(OC(F)F)c(F)c3)c(F)ccc2c1N1CCOCC1`, the logP (Method L0)^[a] was determined as 3.68.
`O=C(N[C@H]1CCOc2ccccc21)c1cnc2c(-c3cc(F)cc(F)c3F)c(F)ccc2c1NCCn1cccn1` had a logP (Method L0) of 2.3.
In the case of `CN(CCO)c1c(C(=O)N[C@H]2CCOc3ccccc32)cnc2c(-c3cc(Cl)cc(Cl)c3Cl)cccc12`, the logP (Method L0) came out at 3.44.
The compound `O=C(N[C@H]1CCOc2ccccc21)c1cnc2c(-c3cc(F)cc(F)c3F)cccc2c1NCCO` [567] displayed a logP (Method L0)^[a] of 1.42.
`O=C(N[C@H]1CCOc2ccccc21)c1cnc2c(-c3cc(Cl)nc(Cl)c3)c(Cl)ccc2c1N1CCOCC1` showed a logP (Method L0)^[a] of 4.18.
Regarding `O=C(N[C@H]1CCOc2ccccc21)c1cnc2c(-c3cc(Cl)nc(Cl)c3)c(F)ccc2c1NCCO`, the logP (Method L0) was 1.84.
With `O=C(N[C@H]1CCOc2ccccc21)c1cnc2c(-c3cccc4ncsc34)c(F)ccc2c1N1CCOCC1`, the logP (Method L0)^[a] came to 2.63.
Take `CN(CCO)c1c(C(=O)N[C@H]2CCOc3ccccc32)cnc2c(-c3cc(Cl)cc(Cl)c3)c(F)ccc12`: the logP (Method L0) came to 3.76.
Regarding `O=C(N[C@H]1CCOc2ccccc21)c1cnc2c(-c3cccc(C(F)(F)F)c3)c(Cl)ccc2c1N1CCOCC1`, the logP (Method L0)^[a] worked out at 4.13.
The compound `COC(=O)CCN(C)c1c(C(=O)N[C@H]2CCOc3ccccc32)cnc2c(-c3cc(Cl)cc(Cl)c3)c(F)ccc12` came in with a logP (Method L0) of 4.51.
For the compound `O=C(N[C@H]1CCOc2ccccc21)c1cnc2c(-c3cc(Cl)cc(Cl)c3)cccc2c1NCC1COC1`, the logP (Method L0)^[a] is 2.19.
The compound `CCN(C)c1c(C(=O)N[C@H]2CCOc3ccccc32)cnc2c(-c3cc(Cl)cc(Cl)c3)cccc12` showed a logP (Method L0)^[a] of 3.63.
The compound `O=C(N[C@H]1CCOc2ccccc21)c1cnc2c(-c3cc(Cl)nc(Cl)c3)c(F)ccc2c1N1CCOCC1` showed a logP (Method L0)^[a] of 3.94.
With `O=C(N[C@H]1CCOc2ccccc21)c1cnc2c(-c3cc(Cl)nc(Cl)c3)cccc2c1NCCO`, the logP (Method L0)^[a] is 1.53.
Regarding `CON(C)c1c(C(=O)N[C@H]2CCOc3ccccc32)cnc2c(-c3cc(Cl)nc(Cl)c3)c(Cl)ccc12`, the logP (Method L0)^[a] is 4.46.
For `CN(CCS(C)(=O)=O)c1c(C(=O)N[C@H]2CCOc3ccccc32)cnc2c(-c3cc(Cl)nc(Cl)c3)c(F)ccc12`, the logP (Method L0) was found to be 3.48.
Compound `Cc1ccc(C)c(-c2c(F)ccc3c(N4CCOCC4)c(C(=O)N[C@H]4CCOc5ccccc54)cnc23)c1` showed a logP (Method L0)^[a] of 2.96.
Still for that read-out and setting: in the case of `CNc1c(C(=O)N[C@H]2CCOc3ccccc32)cnc2c(-c3cc(Cl)nc(Cl)c3)c(F)ccc12` it was 1.9.
In turn, `C[C@@H]1CN(c2c(C(=O)N[C@H]3CCc4ccccc43)cnc3c(-c4cccc(Cl)c4Cl)cccc23)C[C@H](C)O1` came in with a logP (Method L0) of 4.13.
In turn, `Cc1nc2c(-c3cc(Cl)cc(Cl)c3)cccc2c(N(C)C)c1C(=O)N[C@H]1CCOc2ccccc21` showed a logP (Method L0)^[a] of 2.88.
Turning to `CC(C)N(C)c1c(C(=O)N[C@H]2CCOc3ccccc32)cnc2c(-c3cc(Cl)cc(Cl)c3)cccc12`, the logP (Method L0)^[a] stood at 4.51.
The compound `CN(CC1CCOC1)c1c(C(=O)N[C@H]2CCOc3ccccc32)cnc2c(-c3cccc(Cl)c3Cl)c(F)ccc12` (some centres unmarked) returned a logP (Method L0) of 3.61.
The compound `CNc1c(C(=O)N[C@H]2CCOc3ccccc32)cnc2c(-c3cc(F)cc(F)c3F)cccc12` returned a logP (Method L0)^[a] of 1.55.
For the compound `CN(CC1CCOCC1)c1c(C(=O)N[C@H]2CCOc3ccccc32)cnc2c(-c3cccc(Cl)c3Cl)cccc12`, the logP (Method L0)^[a] came to 3.
Compound `Cc1nc2c(-c3cc(F)cc(F)c3F)cccc2c(N(C)C)c1C(=O)N[C@H]1CCOc2ccccc21` gave a logP (Method L0)^[a] of 2.34.
The compound `O=C(N[C@H]1CCOc2ccccc21)c1cnc2c(-c3cc(Cl)cc(Cl)c3)c(F)ccc2c1N1CC(F)C1` showed a logP (Method L0) of 2.06.
The compound `O=C(N[C@H]1CCOc2ccccc21)c1cnc2c(-c3cccc(Cl)c3Cl)cccc2c1NCC1COC1` registered a logP (Method L0)^[a] of 1.75.
For `CCNc1c(C(=O)N[C@H]2CCOc3ccccc32)cnc2c(-c3cc(Cl)nc(Cl)c3)c(F)ccc12`, the logP (Method L0) was 2.48.
As for `O=C(N[C@H]1CCOc2ccccc21)c1cnc2c(-c3cc(Cl)cc(Cl)c3)c(Cl)ccc2c1N1CCOCC1`, the logP (Method L0)^[a] stood at 3.76.
`CCNc1c(C(=O)N[C@H]2CCOc3ccccc32)cnc2c(-c3cc(Cl)cc(Cl)c3)c(F)ccc12`: the logP (Method L0) was determined as 2.23.
On the same count and under the same terms, in the case of `CN(CCO)c1c(C(=O)N[C@H]2CCOc3ccccc32)cnc2c(-c3cc(F)cc(F)c3F)cccc12` it was 2.63.
Turning to `CNc1c(C(=O)N[C@H]2CCOc3ccccc32)cnc2c(-c3cccc(Cl)c3Cl)c(F)ccc12`, the logP (Method L0)^[a] was determined as 1.78.
Take `CON(C)c1c(C(=O)N[C@H]2CCOc3ccccc32)cnc2c(-c3cc(F)cc(F)c3F)cccc12`: the logP (Method L0)^[a] stood at 3.81.
As to `CC(=O)OCCNc1c(C(=O)N[C@H]2CCOc3ccccc32)cnc2c(-c3cccc(Cl)c3Cl)cccc12`, the logP (Method L0) was 1.92.
In the case of `CNc1c(C(=O)N[C@H]2CCOc3ccccc32)cnc2c(-c3cccc(Cl)c3Cl)cccc12`, the logP (Method L0)^[a] is 1.66.
For the compound `O=C(N[C@H]1CCOc2ccccc21)c1cnc2c(-c3cc(Cl)sc3Cl)c(F)ccc2c1N1CCOCC1`, the logP (Method L0)^[a] came to 4.25.
As to `CN(CCO)c1c(C(=O)N[C@H]2CCOc3ccccc32)cnc2c(-c3cc(Cl)nc(Cl)c3)cccc12`, the logP (Method L0) was 3.25.
In turn, `C[C@@H]1CN(c2c(C(=O)N[C@H]3CCOc4ccccc43)cnc3c(-c4cccc(Cl)c4Cl)cccc23)C[C@H](C)O1` yielded a logP (Method L0) of 4.03.
As to `CON(C)c1c(C(=O)N[C@H]2CCc3ccccc32)cnc2c(-c3cc(F)cc(F)c3F)cccc12`, the logP (Method L0)^[a] came to 3.94.
On to `CNc1c(C(=O)N[C@H]2CCOc3ccccc32)cnc2c(-c3cc(Cl)cc(Cl)c3)c(Cl)ccc12`, for which the logP (Method L0) amounted to 2.09.
In turn, `O=C(N[C@H]1CCOc2ccccc21)c1cnc2c(-c3cccc(Cl)c3Cl)cccc2c1N1CCCO1` yielded a logP (Method L0)^[a] of 2.13.
`CCNc1c(C(=O)N[C@H]2CCOc3ccccc32)cnc2c(-c3cc(F)cc(F)c3F)c(F)ccc12` registered a logP (Method L0) of 2.03.
As to `Cc1cc(-c2c(F)ccc3c(N4CCOCC4)c(C(=O)N[C@H]4CCOc5ccccc54)cnc23)c(C)s1`, the logP (Method L0)^[a] turned out to be 2.8.
Consider `O=C(N[C@H]1CCOc2ccccc21)c1cnc2c(-c3cccc(Cl)c3Cl)c(F)ccc2c1NCCO`, for which the logP (Method L0)^[a] came to 1.66.
With `O=C(N[C@H]1CCOc2ccccc21)c1cnc2c(-c3cc(Cl)cc(Cl)c3)c(F)ccc2c1NCCO`, the logP (Method L0) was 1.84.
For the compound `CN(CCO)c1c(C(=O)N[C@H]2CCOc3ccccc32)cnc2c(-c3cccc(Cl)c3Cl)cccc12`, the logP (Method L0) came to 2.43.
Regarding `O=C(N[C@H]1CCOc2ccccc21)c1cnc2c(-c3cccc(Cl)c3Cl)c(F)ccc2c1NCCn1ccnc1`, the logP (Method L0) is 1.26.
In the case of `CN(CC(F)F)c1c(C(=O)N[C@H]2CCOc3ccccc32)cnc2c(-c3cccc(Cl)c3Cl)cccc12`, the logP (Method L0)^[a] came to 4.36.
On the same count and under the same terms, in the case of `O=C(N[C@H]1CCOc2ccccc21)c1cnc2c(-c3cc(Cl)ccc3F)c(Cl)ccc2c1N1CCOCC1` it was 4.03.
With `CNc1c(C(=O)N[C@H]2CCOc3ccccc32)cnc2c(-c3cc(F)cc(F)c3F)c(F)ccc12`, the logP (Method L0)^[a] stood at 1.66.
On to `O=C(N[C@H]1CCOc2ccccc21)c1cnc2c(-c3cccc(F)c3F)c(F)ccc2c1N1CCOCC1`, for which the logP (Method L0)^[a] amounted to 3.33.
The compound `CNc1c(C(=O)N[C@H]2CCOc3ccccc32)cnc2c(-c3cc(F)cc(F)c3F)c(Cl)ccc12` had a logP (Method L0) of 1.89.
With `O=C(N[C@H]1CCOc2ccccc21)c1cnc2c(-c3cc(F)cc(F)c3F)cccc2c1NCCO` [566], the logP (Method L0)^[a] is 1.71.
Turning to `CN(CCn1ccnc1)c1c(C(=O)N[C@H]2CCOc3ccccc32)cnc2c(-c3cc(Cl)cc(Cl)c3)c(F)ccc12`, the logP (Method L0) is 2.03.
Consider `Cc1nc2c(-c3cc(Cl)cc(Cl)c3)cccc2c(N2CCOCC2)c1C(=O)N[C@H]1CCOc2ccccc21`, for which the logP (Method L0)^[a] worked out at 4.51.
In the case of `CCS(=O)(=O)c1c(C(=O)N[C@H]2CCOc3ccccc32)cnc2c(-c3cccc(Cl)c3Cl)cccc12`, the logP (Method L0)^[a] came out at 3.94.
For `CC(C)N(C)c1c(C(=O)N[C@H]2CCOc3ccccc32)cnc2c(-c3cccc(Cl)c3Cl)cccc12`, the logP (Method L0)^[a] was 3.29.
Regarding `O=C(N[C@H]1CCOc2ccccc21)c1cnc2c(-c3cc(F)cc(Cl)c3)c(Cl)ccc2c1N1CCOCC1`, the logP (Method L0)^[a] came to 4.23.
As to `CCN(C)c1c(C(=O)N[C@H]2CCOc3ccccc32)cnc2c(-c3cccc(Cl)c3Cl)cccc12`, the logP (Method L0)^[a] is 2.62.
Compound `CN(CCO)c1c(C(=O)N[C@H]2CCc3ccccc32)cnc2c(-c3cc(Cl)cc(Cl)c3)c(F)ccc12` came in with a logP (Method L0) of 4.19.
`COc1ccc2c(c1)CC[C@@H]2NC(=O)c1cnc2c(-c3cc(Cl)cc(Cl)c3)cccc2c1N(C)C` yielded a logP (Method L0)[a] of 2.84.
`O=C(N[C@H]1CCOc2ccccc21)c1cnc2c(-c3cc(F)cc(F)c3F)c(F)ccc2c1NCCO`: the logP (Method L0) was found to be 1.61.
In turn, `O=C(O)CCSc1c(C(=O)N[C@H]2CCOc3ccccc32)cnc2c(-c3cc(Cl)cc(Cl)c3)cccc12` had a logP (Method L0)^[a] of 4.08.
The same measure, in the same setting: the result for `CNc1c(C(=O)N[C@H]2CCOc3ccccc32)cnc2c(-c3cc(Cl)cc(Cl)c3)c(F)ccc12` reads 1.93; that for `CON(C)c1c(C(=O)N[C@H]2CCOc3ccccc32)cnc2c(-c3cc(F)cc(F)c3F)c(F)ccc12`, 3.9.
For the compound `O=C(N[C@H]1CCOc2ccccc21)c1cnc2c(-c3cc(Cl)cc(Cl)c3)cccc2c1NCCn1ccnc1`, the logP (Method L0) was 1.24.
With `CC1(C)CC(NC(=O)c2cnc3c(-c4cc(Cl)cc(Cl)c4)c(Cl)ccc3c2N2CCOCC2)c2ccccc21` (centres unmarked), the logP (Method L0) was 5.59.
The same measure, in the same setting: the result for `CN(CCS(C)(=O)=O)c1c(C(=O)N[C@H]2CCOc3ccccc32)cnc2c(-c3cc(Cl)cc(Cl)c3)c(F)ccc12` reads 3.9.
`O=C(N[C@H]1CCc2ccccc21)c1cnc2c(-c3cc(Cl)cc(Cl)c3)c(F)ccc2c1N1CCOCC1`: the logP (Method L0)^[a] was found to be 4.61.

Still in this data set, the particulars now being: tested form: racemate.
In turn, `O=C1CC(NC(=O)c2cnc3c(-c4cc(Cl)cc(Cl)c4)cccc3c2N2CCOCC2)c2ccccc21` (centres unmarked) gave a logP (Method L0) of 4.08.
